Laboratory results from patent publication US20020197261A1, “Therapeutic agent/ligand conjugate compositions, their methods of synthesis and use” (priority 2001, published 2002).

Experiments:
[1] = Particle size by light scattering (volume-weighted Gaussian analysis); format: physicochemical
Source text: The nature of the polymeric aggregates may be attributed to the formation of nanoparticles with a hydrophobic core stabilized by outer hydrophilic PEG chains. Several lines of evidence support this conclusion. 1). […] Yokoyama, et al, Preparation of micelle-forming polymer-drug conjugates. Bioconjugate Chem. 3:295-101, 1992). 2). The formation of particles with volume-average diameter of 207 nm was detected by light scattering. […] 3).

A431 cells [2] = assay: Confocal fluorescent microscopy binding and internalization in A431 cells; format: cell-based, human
Description: BODIPY (excitation/emission: 503/511 nm) and Adr (excitation/emission: 480/540-nm) were used to facilitate confocal fluorescent microscopic studies. Cells were grown on Lab-Tek II Chamber Slide (Nalge Nunc International, Naperville, Ill.) to 50% of confluence and incubated with immunoconjugates at 37° C. for various times. PEG-PG-Adr and PEG-PG-BODIPY were used as no-antibody polymer controls. […] Cells were washed three times with PBS, fixed in 95% ethanol, and then treated with 1 μM TO-[…] Iodide (Molecular Probes, Eugene, Oreg.) for 15 minutes for nuclei staining. Fluorescent images of cells were analyzed using LMS-510 confocal microscopy (Zeiss, Thornwood, N.Y.). […] The process was very rapid, internalization was observed as early as 5 minutes after drug exposure.

A431 cells [3] = assay: MTT cytotoxicity, 6-hour pretreatment system; format: cell-based, human; details: read-out: IC50 (50% growth inhibition), 6 hours exposure, washing, additional 72 hours incubation
[4] = tested on: MDA-MB-468 cells that do not express Her2/neu receptors; assay: Confocal fluorescent microscopy binding to MDA-MB-468 cells (negative control cells); format: cell-based, human
Description: BODIPY (excitation/emission: 503/511 nm) and Adr (excitation/emission: 480/540-nm) were used to facilitate confocal fluorescent microscopic studies. Cells were grown on Lab-Tek II Chamber Slide (Nalge Nunc International, Naperville, Ill.) to 50% of confluence and incubated with immunoconjugates at 37° C. for various times. PEG-PG-Adr and PEG-PG-BODIPY were used as no-antibody polymer controls. […] Cells were washed three times with PBS, fixed in 95% ethanol, and then treated with 1 μM TO-PRO-3 Iodide (Molecular Probes, Eugene, Oreg.) for 15 minutes for nuclei staining. Fluorescent images of cells were analyzed using LMS-510 confocal microscopy (Zeiss, Thornwood, N.Y.).
It was not clear, however, whether the conjugates were internalized.

## C225-PEG-PG-Adr
[1]
  dvolume (volume-average particle diameter): 16 nm
A431 cells [2]; 37° C., confocal microscopic studies
  time at which binding of conjugate to cells reached maximum: ≤ 6 h
A431 cells [2]; A431 cells
  earliest time at which internalization was observed after drug exposure: 5 min
A431 cells [2]; A431 cells, confocal microscopy
  localization to nuclei: co-localized with nuclei
A431 cells [2]; at 15 minutes, confocal microscopy
  binding to A431 cells: selectively bound to A431 cells
A431 cells [2]; confocal microscopy
  internalization into A431 cells: clearly visualized
A431 cells [3]
  IC50: 1690 nM

## Her-PEG-PG-BODIPY
[4]
  binding to MDA-MB-468 cells: did not bind to MDA-MB-468 cells
